Laboratory results taken from patent US20170371042A1, “CONTRAST AGENT FOR OPTICAL IMAGING, USE THEREOF AND APPARATUS USING THE SAME” (KYUNGPOOK NATIONAL UNIVERSITY INDUSTRY- ACADEMIC …, priority 2009, published 2017).

Test system: NIH3T6.7 tumor
Experiment: Luminescence and microPET imaging using radioiodinated Herceptin
Format: in vivo, nude mouse
Conditions: 2 days after injection

In the case of “^124I-labeled Herceptin: Herceptin (trastuzumab) antibody radioiodinated with ^124I at tyrosine residues using Iodo-Beads”, the “tumor visualization in luminescence imaging” value (nude mouse, NIH3T6.7 tumor on shoulder and flank, 3.29 MBq, 1 min scan) is reported as “Two tumor lesions were clearly visualized” and the “tumor visualization in microPET image” value (same mouse, 20 min scan) is reported as “only the larger sized tumor (6×5 mm) on the shoulder was barely recognized”.
